Literature values, collected in patent US5070187A, “Pharmacologically effective antagonists of arginine-vasopressin” (priority 1989, dated 1991).

How the values were obtained:
vasopressin V2 receptor = molecular target: T1, vasopressin V2 receptor (Homo sapiens, UniProt P30518); settings: Huffman et al., J. Med. Chem. 32:880-884 (1989)
T1 construct: evaluation in human volunteers of a potent vasopressin V2 receptor antagonist; host or cells: human volunteers (in vivo)

[1] = in vivo

Substance	V2 behaviour in human volunteers, in words (vasopressin V2 receptor)	V2 behaviour in human volunteers, in words (vasopressin V2 receptor; listed as [1-(1-mercaptocyclohexaneacetic acid)-2-(O-ethyl-D-tyrosine), 4-valine, -desglyc)	half-life of circulating vasopressin [1]
[1-(1-mercaptocyclohexaneacetic acid),2-(0-ethyl-D-tyrosine),4-valine,9-desglycine]-8-arginine vasopressin	behaved as a V2 agonist rather than a V2 antagonist	behaved as a V2 agonist rather than V2 antagonist	–
[8-arginine]-vasopressin	–	–	approximately 20 minutes

Like-named read-outs stand apart in the source and are kept apart here.
